Data as given in patent publication US9675715B2, “Contrast agent for photoacoustic imaging” (CANON KABUSHIKI KAISHA, priority 2012, dated 2017).
Entries after “also recorded” stand apart in the source; their conditions may differ.

Tests used:
[1] = tested on: HER2-positive N87 cell line tumor; test: HER2-specific tumor accumulation, HER2-positive N87 tumor; format: in vivo, mouse; conditions: 1 day after administration
Method: (§1) To check HER2-specific tumor accumulation of the molecular probes (ICG-HSA, scFv-ICG-HSA, and scFv-HSA-ICG) prepared as described above, an experiment was performed as described below. The molecular probes were administered to tumor-bearing model mice into which the HER2-positive N87 cell line and the HER2-negative SUIT-2 cell line were implanted. The tumors were removed 1 day after the administration. To the tumors, 1% Triton X-100 was added. The mixtures were homogenized. Dimethyl sulfoxide (DMSO) was added to each resulting homogenate in an amount 9 times the amount of the homogenate, thereby preparing a solution. The fluorescence intensity of these solutions was measured to calculate the tumor accumulation [% ID/g] per tumor weight of the molecular probes administered to the mice. Furthermore, a value obtained by dividing the tumor accumulation in N87 by the tumor accumulation in SUIT-2 (N87/SUIT-2) was calculated as a value indicating HER2 specificity. […] The reason for this is as follows: scFv-HSA-ICG-7 and scFv-HSA-ICG-21 had the same HER2-binding capacity. Thus, for example, labeling with a large number of ICG molecules possibly promoted hepatic elimination with ICG.

[2] = tested on: HER2-negative SUIT-2 cell line tumor; test: HER2-specific tumor accumulation, HER2-negative SUIT-2 tumor; format: in vivo, mouse; conditions: 1 day after administration
Method: as §1

[3] = target: T1, HER2 (Recombinant Human ErbB2/Fc Chimera) (Homo sapiens, UniProt P04626); test: Binding affinity for HER2 by surface plasmon resonance (ProteOn XPR36); conditions: SPR, Table 11 (combinations of HER2-binding molecules and linkers)
T1 construct: Fc (immunoglobulin Fc fusion partner); purchased R&D Systems, Inc

[4] = tested on: Colon 26 mouse colon cancer cells into which the HER2 gene was transferred; test: Accumulation in Colon 26 tumor into which the HER2 gene was transferred; format: in vivo; conditions: intravenous, 13 nmol in terms of ICG, 24 hours after administration
Text: In the evaluation of tumor accumulation, female outbred BALB/c Slc-nu/nu mice (6 weeks old on purchase) (Japan SLC Inc.) were used. The mice were acclimated using standard feeds and beddings and given food and drinking water ad libitum for 1 week before cancer cells were transplanted. At approximately 1 week before an imaging experiment, 1×10^6 Colon 26 mouse colon cancer cells (Riken, Japan) were subcutaneously injected into the right shoulder and the right thigh of each mouse, and 1×10^6 Colon 26 mouse colon cancer cells into which the HER2 gene was artificially transferred were subcutaneously injected into the left shoulder and the left thigh of each mouse. Tumor cells had been all established by the time of the experiment. The body weights of the mice were between 17 and 22 g. Then 200 microliters (13 nmol in terms of ICG) of HER2-binding-molecule-immobilized ICG-HSA or ICG-HSA to which nothing was immobilized was intravenously injected into the tumor-bearing mice. The mice were euthanized with carbon dioxide 24 hours after administration. […] The fluorescence intensity of the solutions of the dye extracted from the tumor tissues and the standard solutions for calibration was measured with the solutions in the tubes using IVIS (registered trademark) Imaging System 200 Series (XENOGEN Corporation) to quantitatively determine the amount of the dye in the tumor tissues. […]

Colon 26 cells tumor = test: Accumulation of contrast agent in Colon 26 tumor, dye extraction and fluorescence; format: in vivo, mouse; conditions: intravenous, 13 nmol in terms of ICG, 24 hours
Method: Tumor model mice were prepared by subcutaneously implanting Colon 26 cells into BALB/c Slc-nu/nu mice.
Tumor model mice were prepared by subcutaneously implanting Colon 26 cells into BALB/c Slc-nu/nu mice. […] Furthermore, in this example, an aqueous solution of ICG (available from Pharmaceutical and Medical Device Regulatory Science of Japan) was used as a control sample.

[5] = Blood accumulation in Colon 26 tumor model mice; format: in vivo, mouse; conditions: intravenous, 13 nmol in terms of ICG
Method: Tumor model mice were prepared by subcutaneously implanting Colon 26 cells into BALB/c Slc-nu/nu mice. The aqueous ICG-HSA solutions were intravenously injected in volumes of 100 microliters each (13 nmol in terms of ICG) into the tumor model mice to evaluate the tumor accumulation. Furthermore, in this example, a compound was synthesized by the reaction of ICG-Sulfo-OSu with glycine in a molar ratio of 1:1 (hereinafter, abbreviated as “ICG-Gly”) and used as a control sample.
Tumor model mice were prepared by subcutaneously implanting Colon 26 cells into BALB/c Slc-nu/nu mice. The aqueous ICG-HSA solutions were intravenously injected in volumes of 100 microliters each (13 nmol in terms of ICG) into the tumor model mice to evaluate the tumor accumulation. Furthermore, in this example, an aqueous solution of ICG (available from Pharmaceutical and Medical Device Regulatory Science of Japan) was used as a control sample.
Table 8 describes the accumulation in the Colon 26 cell mass 24 hours after the administration of the aqueous ICG-HSA solutions and the control.

[6] = Hydrodynamic average particle size by dynamic light scattering; format: physicochemical; conditions: DLS-8000
Text: In this embodiment, the particle size of the particles may be determined by measuring the hydrodynamic average particle size using the dynamic light scattering (DLS) method with a dynamic light scattering spectrophotometer (DLS-8000, manufactured by Otsuka Electronics Co., Ltd).
As comparative examples, the average particle sizes of ICG (available from Pharmaceutical and Medical Device Regulatory Science of Japan), HSA, ICG-HSA (7)-encapsulating liposome particles, and ICG-encapsulating micellar particles are also described. […] The ICG-encapsulating micellar particles refer to micellar particles in which ICG is contained in surfactant micelles by a known emulsification technique.

[7] = tested on: sentinel lymph node (mouse popliteal lymph node); test: Photoacoustic imaging of sentinel lymph node after subcutaneous plantar administration; format: in vivo
Method: A commercially available photoacoustic imaging apparatus (Nexus128, manufactured by Endra Inc.) was used. Photoacoustic signals were measured at predetermined timings before and after the administration of a prepared contrast agent for PAI, and three-dimensional reconstruction data was acquired for each timing. The photoacoustic signal intensity in a region of interest (ROI) was measured on the basis of the resulting three-dimensional reconstruction data using software (GEHC MICROVIEW, GE Healthcare) or the like.
In examples of the present invention, the transfer of the contrast agent for PAI into a sentinel lymph node (SLN) was evaluated by the use of a mouse popliteal lymph node. Ten microliters of the contrast agent was administered subcutaneously into the plantar surface of a nude mouse. Photoacoustic imaging of the mouse popliteal lymph node was performed after 1 day.
The accumulation in a sentinel lymph node (SLN) was evaluated by photoacoustic imaging. […] Then an evaluation was made as to whether the sentinel lymph node was visualized 1 day after the administration by photoacoustic imaging. […] After the measurement, the SLN was removed. The removed SLN and an SLN into which no contrast agent was administered were juxtaposed to each other and subjected to photoacoustic imaging. FIG. 3 illustrates the results.

Substance: ICG-HSA
- Tumor accumulation (after 1 day) N87 [1]: 3.1 % ID/g
- Tumor accumulation (after 1 day) SUIT-2 [2]: 3.0 % ID/g
- Binding affinity to HER2 (KD) [3]: unmea-
- HER2-positive tumor accumulation [4]: 9.6 % ID/g

Substance: ICG-HSA (1)
- Tumor accumulation 1 day after administration (Colon 26 cells tumor): 8.9 % ID/g
- Blood accumulation 1 day after administration [5]: 4.0 % ID/g

Substance: ICG-HSA (7)
- Hydrodynamic average particle size [6]: 20 nm
- Photoacoustic signal from removed SLN ([7]; SLN removed 1 day after administration, compared with unadministered SLN (FIG. 3)): significant photoacoustic signal was observed
- Visualization of SLN ([7]; photoacoustic imaging 1 day after subcutaneous administration into plantar surface of nude mouse, 130 nmol dye): clearly visualized; also recorded: visualizable
- Tumor accumulation 1 day after administration (Colon 26 cells tumor): 19.7 % ID/g
- Blood accumulation 1 day after administration [5]: 2.3 % ID/g

Substance: ICG-HSA (17.5)
- Tumor accumulation 1 day after administration (Colon 26 cells tumor): 3.0 % ID/g
- Blood accumulation 1 day after administration [5]: 0.2 % ID/g

Substance: ICG-HSA (50)
- Tumor accumulation 1 day after administration (Colon 26 cells tumor): 1.8 % ID/g
- Blood accumulation 1 day after administration [5]: 0.5 % ID/g

Substance: human serum albumin [HSA]
- Hydrodynamic average particle size [6]: 7.7 nm
